Literature values in PMC12615863, “Improving GRPR-targeting peptides for radiotheranostics application: insights from chelator modifications and α-methyl-L tryptophan substitution” (EJNMMI Radiopharmacy and Chemistry, 2025).
Like-named read-outs stand apart in the source and are kept apart here.

By UniProt entry, the sequences of proteins in these tests, tags left out. Where a name states a change or a piece, a line headed by the entry shows the natural chain unless it says otherwise.
UniProt P30550: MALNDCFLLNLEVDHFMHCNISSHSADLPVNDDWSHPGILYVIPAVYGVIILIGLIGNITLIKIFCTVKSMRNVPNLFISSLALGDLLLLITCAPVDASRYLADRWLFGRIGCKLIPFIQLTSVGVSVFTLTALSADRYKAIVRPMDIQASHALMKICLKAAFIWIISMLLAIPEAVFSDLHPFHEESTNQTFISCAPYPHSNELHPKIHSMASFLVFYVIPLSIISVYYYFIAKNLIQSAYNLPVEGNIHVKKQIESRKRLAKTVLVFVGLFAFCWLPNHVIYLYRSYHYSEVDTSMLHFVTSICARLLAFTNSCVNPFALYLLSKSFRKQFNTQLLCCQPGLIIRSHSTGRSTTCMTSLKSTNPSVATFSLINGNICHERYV

Molecular target: T1, GRPR (Homo sapiens, UniProt P30550)
T1 construct: 3 × 10^6 PC-3 cells were seeded in 100 mm Petri dishes; host or cells: PC-3 human prostate cancer cells
Design: method as in PMID 19480415
Conditions: LigandTracer, PC-3 cells, 1 and 5 nM, previously published data, cited from earlier work

## DOTAGA-PEG2-Pip-[Sar^11]RM26 [[^177Lu]Lu-AU-RM26-M2] [parent compound, AU-RM26-M2 (DOTAGA-PEG2-Pip-[Sar^11]RM26) labeled with Lu-177, previously reported by the authors]
read-out: KD1
  Kd: 0.192 nM
read-out: KD2
  Kd: 55.2 nM
